This passage reports apparent Tm by DSF and apparent Tm by CD results from publication PMC4837003.

The target of experiment [1] is HLA-A*0201 heavy chain with β2-microglobulin.
Experiment [2] has the same target. The experiment can be described thus: circular dichroism.

NS3_(1406(3S,4G,7L)-1415) peptide: the apparent Tm by DSF in experiment [1] was determined as 61.1 °C. The apparent Tm by CD in experiment [2] was found to be 61 °C.
